For series [1], the target named is T1, TcmM (type II acyl carrier protein of tetracenomycin C biosynthesis in S. glaucescens), His-tagged at both ends, P12884.
T1 chain: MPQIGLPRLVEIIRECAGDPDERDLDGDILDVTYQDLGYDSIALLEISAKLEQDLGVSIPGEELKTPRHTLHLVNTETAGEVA

Series [2] addresses MBlmX-2 (maltose-binding protein fusion of the adenylation and PCP domains from the second module of BlmX).
In series [3] the target is T2, apo-BlmI (type II peptidyl carrier protein BlmI, apo-form, produced from pBS2).
T2 chain: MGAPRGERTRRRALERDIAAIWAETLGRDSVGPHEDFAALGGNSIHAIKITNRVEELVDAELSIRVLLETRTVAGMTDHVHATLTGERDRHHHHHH

The results in this text go back to patent US6927286B1, “Bleomycin gene cluster components and their uses” (The Regents of the University of California, priority 1999, dated 2005).

B1: PptA (phosphopantetheinyl transferase from Streptomyces verticillus ATCC15003), His-tagged (protein)
chain: MIAALLPSWAVTEHAFTDAPDDPVSLLFPEEAAHVARAVPKRLHEFATVRVCARAALGRLGLPPGPLLPGRRGAPSWPDGVVGSMTHCQGFRGAAVARAADAASLGIDAEPNGPLPDGVLAMVSLPSEREWLAGLAARRPDVHWDRLLFSAKESVFKAWYPLTGLELDFDEAELAVDPDAGTFTARLLVPGPVVGGRRLDGFEGRWAAGEGLVVTAIAVAAPAGTAEESAEGAGKEATADDRTAVPHHHHHH
As for B1, the “in vitro phosphopantetheinylation assay, autoradiography” value in series [1] is recorded as “PptA was able to posttranslationally modified both ACP substrates”. In addition, the “in vitro phosphopantetheinylation with (^3H)-(pantetheinyl)-CoASH, SDS electrophoresis and autoradiography” value in series [2] was “PptA exhibited a robust phosphopantetheinylation activity on both BlmI and MBlmX-2”; in series [3], “PptA exhibited a robust phosphopantetheinylation activity on both BlmI and MBlmX-2”.
